Assay: Pharmacokinetics in mice after single s.c. or oral dose
Type: in vivo, female CD1 mice
From the text: The data were fitted to a non-compartment model.

## CC[N+](C)(CC)CCCCCCOc1ccc(C(=C2C3CC4CC(C3)CC2C4)c2ccc(OCCCCCC[N+](C)(CC)CC)cc2)cc1 [NB-115]
After oral administration
  blood levels of compound: only very low levels
After s.c. injection
  blood levels of compound: very high blood levels
